Experimental data from publication PMC5291322, “Development of Cell‐Permeable, Non‐Helical Constrained Peptides to Target a Key Protein–Protein Interaction in Ovarian Cancer” (Angewandte Chemie (International Ed. in English), 2016).
pKd: −log10 of the molar value.

Biological target: T1, mImportin α1 ΔIBB (Mus musculus, UniProt P52293)
T1 construct: made in house; host or cells: E. coli BL21 (DE3) CodonPlus-RIL
Assay: Isothermal titration calorimetry (ITC)
Conditions: 25 °C, 20 mM Hepes pH 8, 200 mM NaCl, one site binding model
Procedure: Because the binding affinity of cargo proteins for their carrier is an important factor for efficient nuclear import,26 it was imperative to quantify the dissociation constant (K d) of the HNF1β^DBD with its nuclear import protein (importin α) by isothermal titration calorimetry (ITC; see Figure S4 in the Supporting Information for ITC curve and binding parameters).
HNF1β protein knockdown levels – Western Blots
Figure 3. HNF1β protein expression levels 48 and 72 h post-transduction with shRNA knockdown clone 583 and shRNA non-target
control SHC202 in PEO1, JHOC5, JHOC7, JHOC9, OVISE and SKOV3 lines. For HGSOC line PEO1, JHOC7 protein lysates were
used as a positive staining control. GAPDH was used as the loading control.
Cells were plated in a 96-well plate (Corning) and incubated overnight. At each time point the
medium was removed and 100 μL trichloroacetic acid (TCA) was added. Cells were fixed at 4 °C overnight.
TCA was removed and plates were washed four times with water. Plates were allowed to dry and were
subsequently stained with Sulforhodamine B (SRB) stain for 30 min at room temperature. […]
(pH 10) on a shaker for 10 min. Optical densities (ODs) were read on a PHERAstar FS (BMG Labtech) at […]
measured by UV-Vis spectroscopy using a Nanodrop (Thermo) and small aliquots of the protein were flash […]
The Kd of mImportin α1 with the HNF1βDBD was determined by isothermal titration calorimetry (ITC) […]

pKd: 6.20
Substance: HNF1β^DBD: DNA-binding domain of HNF1β (91-310), expressed in E. coli
